{"sequences": {"note": "Protein sequences, listed by entry. Tags and fused reporters are not part of them. Residues count along the entry.", "UniProt Q03431, 27-593 limits assumed": "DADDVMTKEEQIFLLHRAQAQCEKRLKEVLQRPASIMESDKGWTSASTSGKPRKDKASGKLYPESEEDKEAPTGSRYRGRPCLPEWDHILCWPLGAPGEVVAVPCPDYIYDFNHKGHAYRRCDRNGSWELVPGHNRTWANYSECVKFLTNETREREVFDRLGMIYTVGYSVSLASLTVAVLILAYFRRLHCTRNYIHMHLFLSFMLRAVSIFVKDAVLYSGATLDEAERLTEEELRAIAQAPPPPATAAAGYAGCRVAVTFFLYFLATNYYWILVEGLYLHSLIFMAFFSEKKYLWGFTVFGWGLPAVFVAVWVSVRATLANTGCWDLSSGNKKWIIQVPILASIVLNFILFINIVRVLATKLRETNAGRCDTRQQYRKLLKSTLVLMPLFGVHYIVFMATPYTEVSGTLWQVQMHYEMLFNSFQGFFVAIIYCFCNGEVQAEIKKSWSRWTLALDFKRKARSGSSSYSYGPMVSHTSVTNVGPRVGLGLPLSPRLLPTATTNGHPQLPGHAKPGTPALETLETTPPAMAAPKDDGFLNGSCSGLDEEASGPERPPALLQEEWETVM"}, "source": "patent US9169254B2", "about": "“Spiroimidazolone derivative” (Chugai Seiyaku Kabushiki Kaisha, priority 2009, dated 2015)", "biological_target": "human PTH1 receptor (Homo sapiens, UniProt Q03431)", "assay": "In vitro cAMP signal activity in HKRK-B7 cells (LLC-PK1 cells overexpressing the human PTH1 receptor)", "type": "cell-based", "settings": "compound at 1×10^−3 M, cAMP produced as percentage of that produced by hPTH(1-34) at 100 nM", "note": "This is a selection: effects in other tests are not listed, and their absence says nothing.", "data": [{"smiles": "CC(=O)N(c1ccc(/C=C/S(=O)(=O)N2CCC3(CC2)N=C(c2cccc(OC(F)(F)F)c2)NC3=O)c(C)c1)C1CCN(C)CC1", "values": [{"measurement": "cAMP production activity (%)", "result": 8.3, "unit": "%"}]}]}
